Results taken from article PMC4128174 (European journal of medicinal chemistry, 2014).

How the values were obtained:
Conditions in all cases: [5] = 100 µM
[1] = biological target: T1, hIDE (Homo sapiens, UniProt P14735)
T1 sequence (P14735 1-1019): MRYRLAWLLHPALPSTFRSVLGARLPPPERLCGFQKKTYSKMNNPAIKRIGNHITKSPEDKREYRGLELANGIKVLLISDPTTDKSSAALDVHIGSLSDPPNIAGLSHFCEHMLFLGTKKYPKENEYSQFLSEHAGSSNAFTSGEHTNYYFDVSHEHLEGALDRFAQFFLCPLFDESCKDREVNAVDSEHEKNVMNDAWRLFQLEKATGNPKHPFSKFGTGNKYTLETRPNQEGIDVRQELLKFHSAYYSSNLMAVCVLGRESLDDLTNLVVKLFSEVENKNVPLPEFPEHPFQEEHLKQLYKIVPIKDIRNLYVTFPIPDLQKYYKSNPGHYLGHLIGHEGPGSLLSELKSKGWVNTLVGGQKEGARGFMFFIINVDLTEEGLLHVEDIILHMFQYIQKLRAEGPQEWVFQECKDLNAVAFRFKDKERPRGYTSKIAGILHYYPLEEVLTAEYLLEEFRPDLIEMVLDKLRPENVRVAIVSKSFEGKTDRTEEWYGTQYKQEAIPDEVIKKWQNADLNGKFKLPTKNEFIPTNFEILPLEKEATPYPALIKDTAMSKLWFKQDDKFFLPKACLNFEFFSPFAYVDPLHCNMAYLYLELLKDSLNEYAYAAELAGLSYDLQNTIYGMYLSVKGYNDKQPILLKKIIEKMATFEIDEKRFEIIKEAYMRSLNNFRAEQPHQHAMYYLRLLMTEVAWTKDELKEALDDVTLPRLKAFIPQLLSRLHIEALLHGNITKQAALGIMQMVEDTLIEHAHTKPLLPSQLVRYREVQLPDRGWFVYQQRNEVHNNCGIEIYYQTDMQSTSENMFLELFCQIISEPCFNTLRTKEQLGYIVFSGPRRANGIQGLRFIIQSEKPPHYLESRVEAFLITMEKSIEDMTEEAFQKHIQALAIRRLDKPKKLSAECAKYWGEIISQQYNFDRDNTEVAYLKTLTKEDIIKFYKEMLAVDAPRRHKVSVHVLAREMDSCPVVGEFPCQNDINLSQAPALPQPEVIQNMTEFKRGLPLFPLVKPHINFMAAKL

[2] = biological target: T1, hIDE; remark: listed apart in the source
[3] = biological target: T1, hIDE; remark: listed apart in the source

CNC(=O)[C@H](Cc1c[nH]cn1)NC(=O)CN(CCCc1ccccc1)CC(=O)O [Compound 5, ((((S)-2-(1H-Imidazol-4-yl)-1-methylcarbamoyl-ethylcarbamoyl)-methyl)-(3-phenylpropyl)-amino)-acetic acid]
effect on hydrolysis of glucagon [1]: no effect | effect on hydrolysis of IGF-II [2]: promotes the hydrolysis | effect on hydrolysis of somatostatin [3]: no effect
